## Measured properties of organic chemicals

Melting points are in °C. Boiling points are in °C, nominally at 760 mmHg. logP is the log10 of the octanol-water partition coefficient; higher is more lipophilic. Solubility in water is on a log10 molar scale (set defined at 25 °C). Vapor pressure is log10 of mmHg; the set covers 15 to 30 °C, mostly 20 to 25 °C. The unbound fraction in human plasma runs from 0 (all bound) to 1 (all free). Clint is human hepatic intrinsic clearance in µL/min per million cells; 0 means that no clearance was seen. Cells with "n/a" have no entry in this list.

The entry for CCCCCCCCCCCCCCCCCC(=O)NCCCN(C)C [N-[3-(Dimethylamino)propyl]octadecanamide] lists mp 67.4 °C and log VP -9.593 (log10 mmHg). The entry for CC(C)(C1CCC(OCC2CO2)CC1)C1CCC(OCC2CO2)CC1 (stereo not drawn) lists log Kow 4 and log S -3.747 (log10 mol/L). Listed for COC(=O)Oc1ccc(C)cc1OC [Carbonic acid, 2-methoxy-4-methylphenyl methyl ester]: mp 52.23 °C and BP 274.9 °C and log Kow 2.27 and log S -2.718 (log10 mol/L). Listed for COc1cc([N+](=O)[O-])c(OC)cc1Cl [4-Chloro-2,5-dimethoxynitrobenzene]: log Kow 2.03 and log S -3.179 (log10 mol/L) and log VP -5.593 (log10 mmHg). The entry for C=CC(C)CCC=C(C)C (stereo not drawn) [Dihydromyrcene] lists log Kow 5.831 and log S -5.965 (log10 mol/L) and log VP 0.544 (log10 mmHg). The entry for CCOc1ccc(B(O)O)c(F)c1F [(4-Ethoxy-2,3-difluorophenyl)boronic acid] lists log Kow 2.3 and log S -3.144 (log10 mol/L) and log VP -5.094 (log10 mmHg). CCCCCCCCCCCC(=O)N(C)C [N,N-Dimethyldodecanamide] is reported with mp 19 °C and log Kow 5.2 and log S -3.909 (log10 mol/L) and log VP -2.894 (log10 mmHg).

CCOc1ccc(C2(C(=O)OC(C#N)c3cccc(Oc4ccccc4)c3)CC2(Cl)Cl)cc1 (stereo not drawn) [Cycloprothrin] is reported with log Kow 5.8 and log S -6.719 (log10 mol/L) and log VP -7.797 (log10 mmHg). Listed for CC(=O)Oc1ccc(C(C)(C)CC(C)(C)C)cc1C1C(=O)Oc2ccc(C(C)(C)CC(C)(C)C)cc21 (stereo not drawn): mp 112 °C and log Kow 9.6. Cc1ccc2c(c1)C(=O)C(C)C2 (stereo not drawn) has mp 8.5 °C and BP 277 °C and log S -2.324 (log10 mol/L) and log VP -4.179 (log10 mmHg). For Cc1cc(C)cc(OCC2CNC(=O)O2)c1 (stereo not drawn) [Metaxalone] the data give log Kow 2.3 and log S -2.238 (log10 mol/L). CCNC(=O)C1CC(C)CCC1C(C)C (stereo not drawn) [N-Ethyl-2-(isopropyl)-5-methylcyclohexanecarboxamide] has log Kow 2.902 and log S -3.055 (log10 mol/L). CN(C)C(=O)c1cc2cnc(Nc3ccc(N4CCN(C(=O)OC(C)(C)C)CC4)cn3)nc2n1C1CCCC1 has mp 220 °C and log S -6.337 (log10 mol/L) and log VP -7.992 (log10 mmHg). For CCCCCCCCCCCC(=O)OC(C)C(=O)OC(C)C(=O)[O-].[Na+] (stereo not drawn) [Sodium 2-(1-carboxylatoethoxy)-1-methyl-2-oxoethyl laurate] the data give log Kow 0.2 and log VP -4.715 (log10 mmHg).

The entry for CCO[Si](CC(C)CC(C)(C)C)(OCC)OCC (stereo not drawn) [Silane, triethoxy(2,4,4-trimethylpentyl)-] lists log S -6.243 (log10 mol/L) and log VP -1.259 (log10 mmHg). CCOC(=O)OC1CCCCC1C(C)(C)C (stereo not drawn) [2-tert-Butylcyclohexyl ethyl carbonate] has mp -2 °C and log S -4.321 (log10 mol/L) and log VP -1.782 (log10 mmHg). For Cc1ccccc1N1CCN(CCc2nnc3n2CCCC3)CC1 [Dapiprazole] the data give log Kow 2.3 and log S -2.637 (log10 mol/L). CC(=O)CCc1ccccc1 [Benzylacetone] is reported with log Kow 2 and log VP -1.375 (log10 mmHg). NCCCN1CCOCC1 [4-Morpholinepropanamine] is reported with log Kow -1.076 and log VP -1.064 (log10 mmHg). CC(=O)COc1c(C)cccc1C [1-(2,6-Dimethylphenoxy)acetone] has log Kow 2.3 and log S -1.919 (log10 mol/L). The entry for CCC(C)n1ncn(-c2ccc(N3CCN(c4ccc(OC)cc4)CC3)cc2)c1=O (stereo not drawn) lists mp 197.8 °C and log S -5.86 (log10 mol/L) and log VP -9.772 (log10 mmHg).

Clc1ccc(Oc2c(Cl)c(Cl)c(Cl)c(Cl)c2Cl)cc1Cl [2,3,3',4,4',5,6-Heptachlorodiphenyl ether] has mp 169 °C and log S -9.46 (log10 mol/L). The entry for CCCCCC1CCC(C2CC=C(c3ccc(OCC)c(F)c3F)CC2)CC1 (stereo not drawn) lists mp 57 °C and BP 403.2 °C and log S -6.512 (log10 mol/L) and log VP -8.078 (log10 mmHg). Listed for O=C(Nc1ccccc1Sc1ccccc1)Oc1ccccc1 [Phenyl [2-(phenylthio)phenyl]carbamate]: mp 90 °C and log Kow 4.4. The entry for C=CC(C)(C#N)Cc1ccccc1 (stereo not drawn) [2-Benzyl-2-methyl-3-butenitrile] lists mp -21.3 °C and BP 260.5 °C and log S -3.001 (log10 mol/L). For N#Cc1ccc2c(c1)COC2=O [1-Oxo-1,3-dihydro-2-benzofuran-5-carbonitrile] the data give log Kow 0.136 and log S -2.248 (log10 mol/L). Listed for COc1cc(/N=N/c2ccc(S(=O)(=O)[O-])cc2)c(C)cc1/N=N/c1c(S(=O)(=O)[O-])cc2cc(Nc3ccccc3)ccc2c1O.[Na+].[Na+] [C.I. Direct Violet 9, disodium salt]: mp 299.2 °C and log Kow -2.165. For C=S(=C)(Cl)c1cccc2c1C=CC(=[N+]=[N-])C2=O [6-Diazo-5,6-dihydro-5-oxonaphthalene-2-sulphonyl chloride] the data give log S -1.779 (log10 mol/L) and log VP -6.568 (log10 mmHg).

For CC(CO)COC1CC2CCC1(C)C2(C)C (stereo not drawn) the data give log Kow 3.31 and log S -3.593 (log10 mol/L) and log VP -2.302 (log10 mmHg). Listed for C=CCOC(=O)[C@@H]1[C@@H](C)CCCC1(C)C [(1R,6S)-Allyl 2,2,6-trimethylcyclohexanecarboxylate]: BP 241.8 °C and log S -4.174 (log10 mol/L) and log VP -1.084 (log10 mmHg). Cc1cc(O)c(C(=O)N[C@@H](C(=O)N[C@@H]2C(=O)N3C(C(=O)O)=C(CSc4nnnn4C)CS[C@H]23)c2ccc(O)cc2)cn1 [Cefpiramide] is reported with log Kow -0.9 and log S -3.962 (log10 mol/L). C=Cn1ccnc1 [1H-Imidazole, 1-ethenyl-] is reported with log Kow 0.75 and log VP -0.426 (log10 mmHg). CCC(C)N(C)C(=O)c1cc2ccccc2c(-c2ccccc2Cl)n1 (stereo not drawn) is reported with fu 0.01614 and intrinsic clearance 42.12 µL/min/10^6 cells. CCCCCCCCCCCCCCCC[N+](C)(C)CC(=O)OCC.[Cl-] has mp 177.4 °C and log Kow 1.2 and log S -3.603 (log10 mol/L).

A selection of 6 entries from above:

| structure (SMILES) | name | mp (°C) | BP (°C) | log Kow | log S (log10 mol/L) | log VP (log10 mmHg) | fu | intrinsic clearance (µL/min/10^6 cells) |
|---|---|---|---|---|---|---|---|---|
| CCC(C)n1ncn(-c2ccc(N3CCN(c4ccc(OC)cc4)CC3)cc2)c1=O (stereo not drawn) | n/a | 197.8 | n/a | n/a | -5.86 | -9.772 | n/a | n/a |
| C=CC(C)(C#N)Cc1ccccc1 (stereo not drawn) | 2-Benzyl-2-methyl-3-butenitrile | -21.3 | 260.5 | n/a | -3.001 | n/a | n/a | n/a |
| COC(=O)Oc1ccc(C)cc1OC | Carbonic acid, 2-methoxy-4-methylphenyl methyl ester | 52.23 | 274.9 | 2.27 | -2.718 | n/a | n/a | n/a |
| CC(C)(C1CCC(OCC2CO2)CC1)C1CCC(OCC2CO2)CC1 (stereo not drawn) | n/a | n/a | n/a | 4 | -3.747 | n/a | n/a | n/a |
| COc1cc([N+](=O)[O-])c(OC)cc1Cl | 4-Chloro-2,5-dimethoxynitrobenzene | n/a | n/a | 2.03 | -3.179 | -5.593 | n/a | n/a |
| CCOc1ccc(B(O)O)c(F)c1F | (4-Ethoxy-2,3-difluorophenyl)boronic acid | n/a | n/a | 2.3 | -3.144 | -5.094 | n/a | n/a |

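The numbers are reported measurements, compiled and curated for the OPERA QSAR suite. One number stands for a compound and property, with no spread given. How each value was measured is not recorded, so precision varies. The measured form (salt, isomer or mixture) is not always the one drawn. Some upstream entries may be estimates or bounds without being marked so.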

From the experimental data distributed with OPERA 2.9.